Screening data deposited in PubChem BioAssay by Broad Institute.
PglD DTNB: C. jejuni PglD acetyltransferase inhibitors, primary screen, biochemical, DTNB colorimetric, single point. AID 602405, 2012. actives 0.098% (n = 360,000). purified PglD enzyme, DTNB colorimetric CoA detection. inhibition, % at 12.5 µM. UDP-N-acetylbacillosamine N-acetyltransferase PglD (Campylobacter jejuni); in the data active = inhibition above about 16%, passing the limit was not always enough; inconclusive = no clear call, values can overlap the other calls
miR-122 sensor: miR-122 Renilla sensor signal increase in Huh7, primary screen, miR-122 inhibitor project, cell-based, single point, plate reader | activation (reporter increase), % at 12.5 µM | Huh7 miR-122 Renilla luciferase sensor, 48 h; neutral wells = 0, positive control = 100 | actives 0.3% (n = 340,000);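 active = mean replicate activation score at least 90 and every replicate individually at or above 90; inconclusive = only one of the two criteria met; inactive = neither criterion met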;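 note: higher luciferase means less miR-122 activity so hits act as miR-122 inhibitors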
MITF TRPM1 HTS: activators of MITF-driven TRPM1 promoter reporter, primary screen, cell-based, SK-MEL-5, luciferase, single point. SK-MEL-5 TRPM1-promoter luciferase, 24 h; % of positive control, neutral wells = 0. activation, % at 12.5 µM. actives 0.75% (n = 300,000). AID 588334, 2011;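 active = mean activation of at least 80% with every replicate also reaching 80%; inconclusive = mean reaches 80% but some replicate falls short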;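 note: 0% = neutral control wells and 100% = parthenolide positive control wells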
Wnt bcat act: Wnt/beta-catenin pathway activators, primary screen, cell-based, plate reader, single point | actives 1.2% (n = 300,000) | activation, % at 9.35 µM | Wnt/beta-catenin reporter cell assay, activator; in the data active = activation above about 30%, passing the limit was not always enough; inconclusive = no clear call, values can overlap the other calls;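 note: 0% = neutral control wells and 100% = positive control wells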
esBAF inh: Bmi1 luciferase reporter increase in mESCs, primary screen, esBAF inhibitor project, mouse ES cells, Bmi1 luciferase knock-in, single point; AID 602393, 2012; 24 h; 100% = twice the neutral-well signal; reporter increase, % at 12.5 µM; actives 2% (n = 350,000); in the data active = activation above about 40%; inconclusive = no clear call, values can overlap the other calls;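 note: 0% = median of the plate's neutral control wells and 100% = double that signal; a rise in the Bmi1 reporter signal indicates esBAF inhibition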
UUG fidelity: modulators of yeast start codon fidelity, primary screen, whole organism, S. cerevisiae, single point, plate reader; S. cerevisiae UUG-firefly luciferase reporter, luminescence/redox ratio; activity score, % at 18.7 µM; 0.13% of 350,000 active; AID 602363, 2012;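 active = replicate mean at a twofold rise or more, about +100% in these data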;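 also: firefly luciferase made from a UUG start codon reports start codon fidelity; reporter light over untreated wells divided by growth signal over untreated wells; some hits fall short of that in this replicate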
Numbers without * were called inactive; ? = inconclusive; nt = not tested or not shown; [ ] = dose if it differs, or a comment. This is a sample that favours compounds with a hit; in the whole collection about 2.8% have one here.

#	esBAF inh	MITF TRPM1 HTS	UUG fidelity	Wnt bcat act	miR-122 sensor	PglD DTNB	compound
1	nt	-4	nt	-2	nt	nt	COc1ccc(C(=O)NCCc2cc3ccc(C)c(C)c3[nH]c2=O)cc1OC
2	3	-12	15	-3	0	-5	Cc1ccc2cc(CCNC(=O)CCCc3ccccc3)c(=O)[nH]c2c1
3	-1	2	-17	-5	-4	4	CCC(CC)C(=O)NCCc1cc2cc(C)c(C)cc2[nH]c1=O
4	37	54	-6	34*	1	-7	COc1ccc2cc(CCNC(=O)c3ccco3)c(=O)[nH]c2c1
5	4	nt	6	nt	0[16.7 µM]	2	CNC[C@@H]1Oc2ccc(NC(=O)Nc3cccc4ccccc34)cc2CC(=O)N([C@H](C)CO)C[C@H]1C
6	51*	64	nt	43*	3	nt	CC(C)c1ccc(OCC(=O)N2CCCCCC2)c(Br)c1
7	-5	nt	0	nt	0[16.7 µM]	0	CCCC(=O)Nc1ccc2c(c1)C(=O)N(C)C[C@H](OC)[C@H](C)CN(C(=O)c1cnccn1)[C@@H](C)CO2
8	nt	32	nt	6	nt	nt	CCOC(=O)c1csc(-c2ccc(OC)c(OC)c2)n1
9	nt	nt	-11	40*	-1	0	CCOC(=O)c1csc(-c2ccc3c(c2)CCO3)n1
10	4	-6	nt	33*	-9	nt	CCOc1nc(N2CCOCC2)nc(C)c1[N+](=O)[O-]
11	1	nt	10	nt	-2[16.7 µM]	-1	C[C@@H]1CCCCO[C@@H](CN(C)Cc2ccccc2)[C@H](C)CN([C@@H](C)CO)C(=O)c2cc(NS(=O)(=O)c3ccccc3)ccc2O1
12	-78	-84	-81	nt	-2	2	CC(C)(C)C(=O)Nc1cc2nn(-c3ccccc3)nc2cc1Cl
13	nt	30	-12	55*	7	-4	CC(=O)Nc1cc2nn(-c3ccccc3)nc2cc1Cl
14	50*	77	-33	24	-7	2	O=C(COc1ccc(Br)cc1Cl)NC(=S)Nc1ccccn1
15	-3	nt	8	nt	-2[16.7 µM]	-1	O=C(Nc1ccc2c(c1)[C@H]1C[C@@H](CC(=O)N3CCCCC3)O[C@H](CO)[C@H]1O2)c1ccc2c(c1)OCO2
16	3	nt	-15	nt	11[16.7 µM]	2	COc1ccc(S(=O)(=O)N(C)C[C@@H]2OCCCC[C@H](C)Oc3ccc(NC(=O)Nc4ccccc4)cc3C(=O)N([C@@H](C)CO)C[C@@H]2C)cc1
17	?	nt	-21	5	-4	-4	Cn1c(COc2ccccc2Br)nc2ccccc21
18	48*	44	-15	3	nt	-3	COc1ccccc1OCc1nc2ccccc2n1C
19	48*	68	-5	nt	-1	-6	COc1ccccc1C(O)Cc1nc2ccccc2n1C (centres undefined)
20	?	64	4	52*	0	-8	C/C(=N\N=c1/sc2ccccc2n1C)c1ccccn1
21	4	-10	nt	nt	nt	nt	C/C(=N\N=c1/sc2ccccc2n1C)c1ccc(N2CCOCC2)cc1
22	51*	30	10	6	6	7	COc1ccc(/C=C/C(=O)NC2CCCCCCC2)cc1S(=O)(=O)N1CCOCC1
23	3	nt	7	nt	-16[16.7 µM]	1	O=C(CC(F)(F)F)N1C[C@H]2[C@@H](c3ccccc31)[C@@H](CO)N2C(=O)c1cccnc1
24	58*	38	-10	13	4	1	O=[N+]([O-])c1cccn2cc(-c3ccc(Br)cc3)nc12
25	50*	20	-12	nt	4	8	Cc1ccc(NC(=O)c2ccc(CSc3ccccn3)cc2)cc1
26	13	13	-3	nt	-9	0	Cc1ccc(Cl)cc1NC(=O)c1ccc(CSc2nnnn2C)cc1
27	30	97*	-8	nt	nt	0	Cc1ccc(NC(=O)c2ccc(CSc3nnnn3C)cc2)cc1
28	46*	35	-16	4	-8	-3	Cc1ccccc1NC(=O)c1ccc(CSc2ncccn2)cc1
29	12	nt	-12	nt	-20[16.7 µM]	1	C[C@H]1CCCCO[C@@H](CN(C)S(=O)(=O)c2cccs2)[C@@H](C)CN([C@@H](C)CO)C(=O)c2cc(NC(=O)NC3CCCCC3)ccc2O1

Of the compounds above, these contain an NH in an aromatic ring:
#	esBAF inh	MITF TRPM1 HTS	UUG fidelity	Wnt bcat act	miR-122 sensor	PglD DTNB	compound
1	nt	-4	nt	-2	nt	nt	COc1ccc(C(=O)NCCc2cc3ccc(C)c(C)c3[nH]c2=O)cc1OC
2	3	-12	15	-3	0	-5	Cc1ccc2cc(CCNC(=O)CCCc3ccccc3)c(=O)[nH]c2c1
3	-1	2	-17	-5	-4	4	CCC(CC)C(=O)NCCc1cc2cc(C)c(C)cc2[nH]c1=O
4	37	54	-6	34*	1	-7	COc1ccc2cc(CCNC(=O)c3ccco3)c(=O)[nH]c2c1
